# Biological target: MDR1 (P-gp, ABCB1) (Homo sapiens, UniProt P08183)
# Protein sequences, listed by entry. Tags and fused reporters are not part of them.
# UniProt P08183, whole entry: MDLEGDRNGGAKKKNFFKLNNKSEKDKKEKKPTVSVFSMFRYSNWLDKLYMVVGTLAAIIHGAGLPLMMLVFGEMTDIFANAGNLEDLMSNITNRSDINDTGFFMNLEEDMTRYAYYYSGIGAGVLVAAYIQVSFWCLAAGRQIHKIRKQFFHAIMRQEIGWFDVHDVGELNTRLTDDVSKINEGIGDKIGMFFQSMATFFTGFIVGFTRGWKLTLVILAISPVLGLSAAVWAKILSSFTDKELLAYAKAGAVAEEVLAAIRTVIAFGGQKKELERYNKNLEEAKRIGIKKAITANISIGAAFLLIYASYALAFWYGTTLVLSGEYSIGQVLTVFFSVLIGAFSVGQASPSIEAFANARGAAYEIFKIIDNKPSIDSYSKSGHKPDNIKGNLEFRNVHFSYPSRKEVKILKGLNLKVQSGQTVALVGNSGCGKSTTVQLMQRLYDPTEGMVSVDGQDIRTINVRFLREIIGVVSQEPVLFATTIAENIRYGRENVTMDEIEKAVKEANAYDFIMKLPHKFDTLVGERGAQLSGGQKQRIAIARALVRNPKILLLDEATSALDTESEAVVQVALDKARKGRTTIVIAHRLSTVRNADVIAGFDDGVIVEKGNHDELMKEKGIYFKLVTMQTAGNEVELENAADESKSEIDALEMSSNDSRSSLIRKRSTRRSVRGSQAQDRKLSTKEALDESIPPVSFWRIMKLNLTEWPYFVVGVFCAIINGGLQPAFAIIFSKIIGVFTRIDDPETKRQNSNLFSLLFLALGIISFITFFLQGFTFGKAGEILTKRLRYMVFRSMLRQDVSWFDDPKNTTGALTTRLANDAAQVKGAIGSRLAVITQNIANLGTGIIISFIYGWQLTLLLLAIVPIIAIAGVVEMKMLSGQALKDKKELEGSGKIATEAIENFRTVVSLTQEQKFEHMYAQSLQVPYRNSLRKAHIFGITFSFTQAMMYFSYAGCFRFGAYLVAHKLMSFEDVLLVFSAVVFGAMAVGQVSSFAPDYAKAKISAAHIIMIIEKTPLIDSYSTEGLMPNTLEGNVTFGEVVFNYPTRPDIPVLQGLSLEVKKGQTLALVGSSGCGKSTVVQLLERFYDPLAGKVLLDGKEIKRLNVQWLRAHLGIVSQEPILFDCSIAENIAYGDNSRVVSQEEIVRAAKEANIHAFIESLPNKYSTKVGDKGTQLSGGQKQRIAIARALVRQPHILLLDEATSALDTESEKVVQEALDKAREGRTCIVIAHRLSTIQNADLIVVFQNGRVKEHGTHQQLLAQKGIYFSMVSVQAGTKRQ
# Assay: Substrate activity at human MDR1 expressed in MDCK cells assessed as efflux ratio of apparent permeability across basolateral to apical side over apical to basolateral side at 1 uM by UPLS-MS/MS analysis
# Format: ADME, cell-based
# Outline: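 TransWell monolayers of CRISPR-Cas9 MDCK cells expressing human MDR1 without endogenous canine MDR1, compared against a control line expressing neither ortholog (MDCK^cMDR1-ko); efflux ratio = Papp basolateral-apical / Papp apical-basolateral; unpaired t-test, p < 0.05.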
smiles,measurement,value
C[C@@H]1COCCN1c1nc(-c2cnc(N)c(C(F)(F)F)c2)nc2c1C[C@@H]1COCCN21,efflux ratio at 1 µM,1

# Reference: ChEMBL document CHEMBL4732024, “Second-generation tricyclic pyrimido-pyrrolo-oxazine mTOR inhibitor with predicted blood-brain barrier permeability” (RSC Med Chem, 2021)
